According to the NIST ThermoML archive (doi:10.1016/j.jct.2013.02.004):

Test: activity coefficient (dimensionless); of the first substance listed, at infinite dilution; xn = mol fraction of the nth substance listed
Conditions: 101 kPa, Liquid, Chromatography, x1 = 0

SMILES: CCCCOCCCC [dibutyl ether] + CCCCCC[n+]1ccc2ccccc2c1.N#C[S-]
- activity coefficient (308.15 K): 27.8 ± 1.9
- activity coefficient (318.15 K): 25.9 ± 1.8
- activity coefficient (328.15 K): 24.4 ± 1.7
- activity coefficient (338.15 K): 23.1 ± 1.6
- activity coefficient (348.15 K): 21.8 ± 1.5
- activity coefficient (358.15 K): 20.8 ± 1.4
- activity coefficient (368.15 K): 19.6 ± 1.3

± gives the expanded uncertainty stated by the source.
